Earlier results, collected in US8236527B2, “Recombinant production of authentic human proteins using human cell expression systems” (Humanzyme Limited, priority 2008, dated 2012).

System: Vesicular Stomatitis virus
Settings: cited from earlier work

Rebif: a recombinant interferon-beta-1a product
specific activity (antiviral activity): approximately 270 million international units (MW) of antiviral activity per mg of interferon beta-1a
